Laboratory results taken from patent US8778958B2, “Synthesis of metabolically stable agents for alcohol and drug abuse” (priority 2008, dated 2014).

Sequences of proteins named here, by UniProt entry; tags and fusion partners are left off.
UniProt P35372, whole entry: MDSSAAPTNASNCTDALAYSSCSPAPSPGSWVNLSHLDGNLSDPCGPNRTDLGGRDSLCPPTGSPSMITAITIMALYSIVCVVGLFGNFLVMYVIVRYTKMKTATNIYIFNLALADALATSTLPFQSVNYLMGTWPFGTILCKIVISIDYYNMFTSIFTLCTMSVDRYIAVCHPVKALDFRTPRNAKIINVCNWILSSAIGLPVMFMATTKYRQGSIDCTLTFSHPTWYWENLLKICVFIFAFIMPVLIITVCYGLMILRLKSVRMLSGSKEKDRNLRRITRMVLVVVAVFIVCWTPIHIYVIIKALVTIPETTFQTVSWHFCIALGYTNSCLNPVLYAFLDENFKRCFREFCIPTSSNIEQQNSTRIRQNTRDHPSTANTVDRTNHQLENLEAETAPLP

Key:
[1] = target: δ-opioid receptor (Homo sapiens, UniProt P41143); test: Competitive radioligand binding, δ-opioid receptor; conditions: Table 1b; concentration not given
[2] = target: μ-opioid receptor (Homo sapiens, UniProt P35372); test: Competitive radioligand binding, μ-opioid receptor ([3H]DAMGO); conditions: read-out: Ki (nM) ± SEM, μ; Table 1b, N-oxides
[3] = target: κ-opioid receptor (Homo sapiens, UniProt P41145); test: Competitive radioligand binding, κ-opioid receptor ([3H]U69593); conditions: read-out: Ki (nM) ± SEM, κ; Table 1b, N-oxides

O=C(Cc1ccccn1)N[C@@H]1CC[C@@]2(O)[C@H]3Cc4ccc(O)c5c4[C@@]2(CC[N+]3([O-])CC2CC2)[C@H]1O5 (stereo partly drawn)
Inhibition of agonist binding, δ [1]: <50% inh
Ki [2]: 114 nM
Ki [3]: 100 nM
